Literature values in patent US20250114344A1, “COMBINATORIAL PHARMACOTHERAPY FOR THE RESTORATION OF NEURO-FUNCTION AND COMBINATORIAL PHARMACOLOGICAL COMPOSITION THEREFORE” (Neuro-Innovators, LLC., priority 2022, published 2025).

Target: angiotensin II receptor type 1 (AT1) (Homo sapiens, UniProt P30556)
Settings: AT1 than AT2

Compound: CCCc1nc2c(C)cc(-c3nc4ccccc4n3C)cc2n1Cc1ccc(-c2ccccc2C(=O)O)cc1 [Telmisartan]
- binding affinity for AT1 relative to AT2: 3000 times
